The test deals with NCI-H23 lung. The test can be described thus: DTP human tumour cell line panel, 48 h.

SMILES strings stand for the structures.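 1) Cells in 96-well plates. 2) Compound, 48 h, 5 concentrations. 3) Linear interpolation between surrounding doses. 4) Unreached endpoint = highest concentration. TGI is the concentration that stops growth completely.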 Where only a bound is given, the exact number is not on record here.

A word on the TGI: it is the concentration giving total growth inhibition. Read a high TGI as less potent growth arrest. In the case of `O=C(NC(=O)c1cn(C2OC(CO)C(O)C2O)c(=O)[nH]c1=O)OCc1ccccc1` (stereo unspecified), the TGI is > 100 µM.

The values above are taken from PubChem BioAssay (NCI).
